The values that follow come from patent publication US10807989B2, “3-(carboxymethyl)-8-amino-2-oxo-1,3-diaza-spiro-[4.5]-decane derivatives” (dated 2020).

Protein sequences, listed by entry. Tags and fused reporters are not part of them. Lines headed by an entry give the natural chain unless they say otherwise; changes in a name come on top.
UniProt P35372, whole entry, looked up: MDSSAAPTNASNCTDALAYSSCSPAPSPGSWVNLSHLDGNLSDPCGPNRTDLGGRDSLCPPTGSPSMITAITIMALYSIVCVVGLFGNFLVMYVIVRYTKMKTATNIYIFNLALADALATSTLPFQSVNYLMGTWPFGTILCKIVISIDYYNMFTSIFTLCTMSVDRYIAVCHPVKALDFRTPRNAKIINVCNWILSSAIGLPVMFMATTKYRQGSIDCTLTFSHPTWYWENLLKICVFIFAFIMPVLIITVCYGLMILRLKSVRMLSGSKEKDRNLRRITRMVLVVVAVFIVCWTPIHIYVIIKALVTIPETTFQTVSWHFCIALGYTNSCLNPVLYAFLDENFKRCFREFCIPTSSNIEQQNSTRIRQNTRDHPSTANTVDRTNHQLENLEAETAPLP
UniProt P41146: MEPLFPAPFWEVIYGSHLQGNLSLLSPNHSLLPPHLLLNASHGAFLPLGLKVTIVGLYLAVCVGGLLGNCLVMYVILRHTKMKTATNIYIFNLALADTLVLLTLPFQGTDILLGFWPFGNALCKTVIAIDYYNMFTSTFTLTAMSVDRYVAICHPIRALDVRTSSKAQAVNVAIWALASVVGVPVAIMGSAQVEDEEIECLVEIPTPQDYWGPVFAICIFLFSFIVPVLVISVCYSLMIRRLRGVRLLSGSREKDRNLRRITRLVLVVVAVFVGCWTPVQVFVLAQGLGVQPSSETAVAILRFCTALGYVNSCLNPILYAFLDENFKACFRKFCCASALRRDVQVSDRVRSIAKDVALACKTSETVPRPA

Assay [1] deals with human mu-opioid peptide (hMOP) receptor (Homo sapiens (Human), UniProt P35372). Briefly: hMOP receptor binding assay (SPA, [3H]naloxone). As to conditions: read-out: hMOP Ki.
Assay [2] deals with human nociceptin/orphanin FQ peptide (hNOP) receptor (Homo sapiens (Human), UniProt P41146). Briefly: hNOP receptor binding assay (SPA, [leucyl-3H]nociceptin). Conditions: read-out: hNOP Ki.

Take `CN(C)[C@]1(c2ccccc2)CC[C@]2(CC1)CN(CC(=O)NCC1CCC(O)C1)C(=O)N2CC1CCC1` (relative stereo): the Ki in assay [1] worked out at 94 nM; in assay [2], 1.6 nM.

As for `CN(C)[C@]1(c2ccccc2)CC[C@]2(CC1)CN(CC(=O)NCC1CCC(O)CC1)C(=O)N2CC1CCC1` (relative stereo), the Ki in assay [1] was determined as 49.5 nM; in assay [2], 1.8 nM.

In the case of `CN(C)[C@]1(c2ccccc2)CC[C@]2(CC1)CN(CC(=O)NC[C@H]1C[C@@H](O)C1)C(=O)N2CC1CCC1` (relative stereo), the Ki in assay [1] amounted to 76.5 nM; in assay [2], 3.1 nM.

With `CN(C)[C@]1(c2ccccc2)CC[C@]2(CC1)CN(CC(=O)NC[C@H]1C[C@H](O)C1)C(=O)N2CC1CCC1` (relative stereo), the results for the Ki in assay [1] and in assay [2] were 130 nM and 2.6 nM, respectively.

As for `COCCCN1C(=O)N(CC(=O)NCC2CCC(O)C2)C[C@]12CC[C@](c1ccccc1)(N(C)C)CC2` (relative stereo), the Ki in assay [2] amounted to 95.5 nM.

Consider `COCCCN1C(=O)N(CC(=O)NC[C@H]2C[C@@H](O)C2)C[C@]12CC[C@](c1ccccc1)(N(C)C)CC2` (relative stereo), for which the Ki in assay [2] is 110 nM.

Turning to `COCCCN1C(=O)N(CC(=O)NC[C@H]2C[C@H](O)C2)C[C@]12CC[C@](c1ccccc1)(N(C)C)CC2` (relative stereo), the Ki in assay [2] stood at 47 nM.
